The values below come from PubChem BioAssay AID624094 (National Center for Advancing Translational Sciences (NCATS), 2012).

Amino acid sequences for entries named in this document (tags omitted). A change or cut given only in a name is not applied to a line headed by its entry.
UniProt Q9HAZ1: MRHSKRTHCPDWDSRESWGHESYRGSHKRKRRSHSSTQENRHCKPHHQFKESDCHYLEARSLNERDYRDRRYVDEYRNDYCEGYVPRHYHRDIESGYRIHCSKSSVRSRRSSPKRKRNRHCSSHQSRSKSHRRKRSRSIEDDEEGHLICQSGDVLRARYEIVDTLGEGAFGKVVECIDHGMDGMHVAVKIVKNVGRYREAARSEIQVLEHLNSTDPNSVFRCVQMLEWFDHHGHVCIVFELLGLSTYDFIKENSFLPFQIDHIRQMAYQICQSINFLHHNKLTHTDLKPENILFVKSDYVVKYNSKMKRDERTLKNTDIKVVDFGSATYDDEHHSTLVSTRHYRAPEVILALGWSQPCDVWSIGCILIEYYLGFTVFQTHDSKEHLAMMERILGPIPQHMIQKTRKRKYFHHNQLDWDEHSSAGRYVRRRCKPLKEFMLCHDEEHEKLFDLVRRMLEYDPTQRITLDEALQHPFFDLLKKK

The assay addresses Dual specificity protein kinase CLK4 (Homo sapiens) (UniProt Q9HAZ1). The assay is described as follows: Confirmation Assay for Inhibitors of Clk4 (Kinase-Glo Assay): KU probe. As to conditions: recombinant Clk4, Kinase-Glo ATP luminescence. On the procedure:
NIH Molecular Libraries Probe Production Centers Network [MLPCN] NIH Chemical Genomics Center [NCGC] MLPCN Grant: 1R03MH084827-01 Assay Submitter (PI): Tom Misteli NCGC Assay Overview: Clk4 (Invitrogen, cat# PV3839) was assayed using ATP and the RS repeat peptide (AnaSpec cat # 61722) as substrates. Following the Clk4 reaction, the remaining ATP levels were detected using Promega Kinase-Glo technology wherein the remaining ATP from the kinase reaction is detected using Ultra-Glo luciferase and D-luciferin which generates a bioluminescence signal from the ATP. The positive control for the assay was TG003 (Sigma-Aldrich, cat# 300801-52-9) which has been described as an inhibitor of Clk 4[1].
NCGC Assay Protocol Summary: Two uL/well of substrate-buffer solution (100 uM RS peptide, 1 uM ATP, 25 mM Tris pH7.5, 10 mM MgCl2, 0.5 mM EGTA, 2.5 mM DTT, 0.01% Triton X-100 final concentration) was dispensed into 1536-well, assay plates (Greiner, solid white medium-binding plates) with Aurora Discovery BioRAPTR Flying Reagent Dispenser (FRD; Beckton-Dickenson). Using a Kalypsys pin tool equipped with a 1536-pin tool, 23 nL of compound solution was transferred to the assay plate. […] Luminescence was detected with the ViewLux plate reader (Perkin Elmer, Waltham, MA) after 5 min incubation using a 5 second exposure time and 2x binning.

SMILES strings stand for the structures. The list shows a part of the results, in another mix than the full data. Inconclusive results are not listed. Activity calls are given as the source filed them. Calls follow the shape of the dose curve; as a rule, active = well fitted inhibition curve with a large enough effect; inconclusive = small, poorly fitted or top-dose-only effect; inactive = flat fitted curve, though single readings scatter.

With `CCN1/C(=C/C(C)=O)Sc2ccc(OC)cc21`, the Potency was active: 46.3 nM.
